# HCMV NEC inh – inhibitors of HCMV UL50-UL53 interaction, biochemical, HTRF | HCMV UL50-UL53 nuclear egress complex (human cytomegalovirus) | normalized percent inhibition | inhibition, % (no concentration beside the values) | 0.15% of 190,000 active | AID 1918969, 2023; in the data active means inhibition above about 27%, passing the limit was not always enough
# GIV-Gai inh – blocks GIV peptide binding to rat Galpha-i3. P08753. Galpha-i3/FITC-GIV peptide fluorescence polarization, 90 min; hits give low values; scaled: aluminum fluoride 0%, vehicle 100%. percent of control (FP), % (concentration not given with the values). actives 0.42% (n = 210,000). AID 1224905;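 active = replicate mean at 85% of control or lower, very high polarization wells dropped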;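 also: wells of about 15 µL received 100 nL stock; the first replicate is given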
# GIV-Gai FP conf – inhibitors of GIV peptide binding to Galpha-i3, confirmation, biochemical, fluorescence polarization, FITC-GIV peptide, rat Galphai3; shares compounds with GIV-Gai inh; hits give low values; AID 1259350, 2017; fluorescence polarization, mP at 100 µM; 38% of 580 active;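 active means inhibition score of 15 or more, meaning 100 minus mean polarization as percent of control over three replicates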;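 further: lower mP means peptide displaced from Galphai3 so more inhibition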
# GIV Gai AS conf – inhibitors of GIV binding to Galpha-i3, confirmation, orthogonal assay for GIV-Galpha-i inhibitor project, biochemical, AlphaScreen, His-GIV, GST-Galphai3 | purified proteins, 90 min; hits give low values | shares compounds with GIV-Gai inh | 39% of 580 active | AlphaScreen counts at 100 µM | AID 1259351, 2017;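 active means inhibition score at or above a set limit, where the score is 100 minus the three-replicate mean percent of control signal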
# The depositor's hits bear a star; x = no result given. Only a selection was taken, and hits are over-represented in it overall.
# Field names – A = HCMV NEC inh; B = GIV-Gai inh; C = GIV-Gai FP conf; D = GIV Gai AS conf
> Cc1cc(OCc2nc(CC(=O)NCC(C)C)cs2)ccc1Cl
  A: -19.1	B: 96.2	C: 69.4	D: 41855

> Cc1cc(OCc2nc(CC(=O)NC3CC3)cs2)ccc1Cl
  A: -12.6	B: 122.6	C: x	D: x

> O=C(N=Nc1c(O)[nH]c(=O)[nH]c1=O)c1ccccn1
  A: -19.0	B: 105.3	C: x	D: x

> O=C(N=Nc1c2ccccc2c2nc3no[nH]c3nc12)c1ccccc1O
  A: -9.5	B: 77.3*	C: 66.1	D: 12405*

> N#CCc1ccc(NC(=O)Cc2ccccc2)cc1
  A: -5.3	B: 102.4	C: x	D: x

> Cc1cccc(NC(c2cccnc2)c2ccc3cccnc3c2O)n1 (configuration not stated)
  A: -88.7	B: 100.1	C: x	D: x

> O=C(/C=C/c1ccccc1)/C=C/c1ccco1
  A: 9.9	B: 119.7	C: x	D: x

> O=C(/C=C/c1ccco1)/C=C/c1ccco1
  A: x	B: 45.3*	C: 61.3	D: 42048

> COc1ccc(-c2cc(=Nc3ccc(C)cc3C)c3cc(O)ccc3o2)cc1
  A: x	B: 74.6*	C: 63.5	D: 35576

> COc1ccc(-c2c/c(=N\O)c3cc(F)ccc3o2)cc1
  A: -19.7	B: x	C: x	D: x

> Cc1ccc(-c2noc3ncnc(N(CCN(C)C)Cc4ccccc4)c23)cc1
  A: x	B: 101.7	C: x	D: x

> COc1cccc(NC(=O)c2ccc(COc3ccc(Cl)cc3)o2)c1
  A: 12.4	B: 109.0	C: x	D: x

> N#Cc1c(/N=C/c2ccc3c(c2)OCO3)oc(-c2ccccc2)c1-c1ccccc1
  A: 6.9	B: 83.6*	C: 74.2	D: 31432

> N#Cc1c(/N=C/c2ccc(Cl)cc2)oc(-c2ccccc2)c1-c1ccccc1
  A: x	B: 109.1	C: x	D: x

> O=C(Cn1cc(S(=O)(=O)N2CCCC2)c(S(=O)(=O)N2CCCC2)c1)N1CCc2ccccc21
  A: 2.0	B: 112.4	C: x	D: x

> O=C1/C(=C/c2cccs2)SC(=S)N1CCCC(=O)N1c2ccccc2Sc2ccccc21
  A: x	B: 99.1	C: x	D: x

> Cc1ccc(NS(=O)(=O)c2cc3c(c([N+](=O)[O-])c2)-c2c(cc(S(=O)(=O)Nc4ccc(C)cc4)cc2[N+](=O)[O-])C3=O)cc1
  A: x	B: 117.4	C: x	D: x

> Cn1c(/N=C/c2c(O)ccc3ccccc23)nc2ccc(Br)cc21
  A: 19.6	B: 23.3*	C: 25.3*	D: 14331*

> Cc1ccc(O)c(C=Nc2cc(C)on2)c1
  A: -9.0	B: 98.0	C: x	D: x

> CCc1ccc(N=Cc2c(O)ccc3ccccc23)cc1
  A: -9.4	B: x	C: x	D: x

> Cc1cc(N=Cc2c(O)ccc3ccccc23)no1
  A: 103.2*	B: -9.8*	C: 12.7*	D: 20466*

> NC(=O)NNc1cccc2cccnc12
  A: -46.1	B: 105.9	C: x	D: x

> Cc1cc(N2CCCC2)n2nc(CN3CCCCC3C)nc2n1 (configuration not stated)
  A: x	B: 101.4	C: x	D: x

> CCOC(=O)c1ccc(-n2c(C)cc(C=C3C(=O)N(C)C(=S)N(C)C3=O)c2C)cc1
  A: -5.2	B: 113.5	C: x	D: x

> CCOC(=O)c1ccc(-n2c(C)cc(C=C3C(=O)NC(=S)NC3=O)c2C)cc1
  A: x	B: 77.9*	C: 64.4	D: 10801*

# Entries listed so far with two or more sulfur atoms (three):
# Field names – A = HCMV NEC inh; B = GIV-Gai inh; C = GIV-Gai FP conf; D = GIV Gai AS conf
> O=C(Cn1cc(S(=O)(=O)N2CCCC2)c(S(=O)(=O)N2CCCC2)c1)N1CCc2ccccc21
  A: 2.0	B: 112.4	C: x	D: x

> O=C1/C(=C/c2cccs2)SC(=S)N1CCCC(=O)N1c2ccccc2Sc2ccccc21
  A: x	B: 99.1	C: x	D: x

> Cc1ccc(NS(=O)(=O)c2cc3c(c([N+](=O)[O-])c2)-c2c(cc(S(=O)(=O)Nc4ccc(C)cc4)cc2[N+](=O)[O-])C3=O)cc1
  A: x	B: 117.4	C: x	D: x

# Full records, quoted from the list.
# COc1ccc(-c2c/c(=N\O)c3cc(F)ccc3o2)cc1 reads HCMV NEC inh: -19.7; GIV-Gai inh: x; GIV-Gai FP conf: x; GIV Gai AS conf: x
# Cc1ccc(O)c(C=Nc2cc(C)on2)c1 reads HCMV NEC inh: -9.0; GIV-Gai inh: 98.0; GIV-Gai FP conf: x; GIV Gai AS conf: x

# Next section:
# Each structure is followed by: HCMV NEC inh | GIV-Gai inh | GIV-Gai FP conf | GIV Gai AS conf
O=C(CN1C(=O)CCCc2ccccc21)NCc1cc(F)cc(F)c1
→ -5.4 | 108.9 | x | x
CCC1C/C(=C\c2ccc(OCC(N)=O)cc2)C(=O)/C(=C/c2ccc(OCC(N)=O)cc2)C1 (configuration not stated)
→ x | 89.5 | 74.9 | 15830*
CCC1C/C(=C\c2ccc(Br)cc2)C(=O)/C(=C/c2ccc(Br)cc2)C1 (configuration not stated)
→ x | 98.8 | x | x
CCCC(=O)Nc1nc2ccc(S(=O)(=O)N(CC)CC)cc2s1
→ x | 100.4 | x | x
Cc1c(Nc2nc3nonc3nc2Nc2ccccc2F)c(=O)n(-c2ccccc2)n1C
→ -6.7 | 125.9 | 67.9 | 44712
Cc1c(Nc2nc3nonc3nc2Nc2ccc(F)cc2)c(=O)n(-c2ccccc2)n1C
→ x | 105.8 | x | x
CC(NC(=O)COc1ccccc1O)C1CC2CCC1C2 (configuration not stated)
→ -22.8 | x | x | x
CC(=O)Nc1ccc2nc3c(=O)[nH]c(=O)[nH]c3nc2c1
→ -145.6 | 66.1* | 58.1* | 5170*
CC(=O)Nc1ccc2sc(C)nc2c1
→ -18.5 | 101.1 | x | x
CCCCCCC(=O)Nc1ccc2nc3c(=O)[nH]c(=O)[nH]c3nc2c1
→ -124.1 | 83.2* | 44.3* | 16182*
CCCC(=O)Nc1ccc2[nH]c(=O)[nH]c2c1
→ -1.8 | x | x | x
O=C(CSc1nc2ccccc2[nH]1)OCC(=O)N1c2ccccc2Sc2ccccc21
→ x | 110.0 | x | x
CC(OC(=O)CN1C(=O)c2ccccc2C1=O)C(=O)Nc1cccc(C#N)c1 (configuration not stated)
→ 9.4 | x | x | x
Cc1[nH]nc2oc(=O)c(Cc3c(F)cccc3Cl)c(C)c12
→ -7.7 | 99.9 | x | x
Cc1[nH]nc2oc(=O)c(CC(=O)O)c(C)c12
→ 64.8 | 84.1* | 59.1* | 27884
N#CC1=C(N)Oc2cc(O)ccc2C1c1ccccc1 (configuration not stated)
→ -9.7 | 103.8 | x | x
CCN(CC)c1ccc2c(c1)OC(N)=C(C#N)C2c1cccc(F)c1 (configuration not stated)
→ -17.6 | 107.6 | 115 | 21637
N#CC(C(=O)NCc1ccccc1)c1nc2ccccc2nc1N1CCCC1 (configuration not stated)
→ -17.2 | x | x | x
N#CC(C(=O)NCCc1ccccc1)c1nc2ccccc2nc1N1CCOCC1 (configuration not stated)
→ -9.5 | 86.0 | 76.2 | 31052
O=C(O)CCc1ccc(-c2ccccc2)n1CCC(=O)O
→ x | 100.1 | x | x
O=C(O)CCCC(=O)Nc1nc2n(n1)C(c1ccc(Cl)cc1)C=C(c1ccc(Cl)cc1)N2 (configuration not stated)
→ -62.6 | 104.0 | x | x
O=C(O)CCC(=O)Nc1nc2n(n1)C(c1ccc(Cl)cc1)C=C(c1ccccc1)N2 (configuration not stated)
→ -74.9 | 62.8* | 44.3* | 2477*
COc1ccc(C(=O)Nc2ccccc2SCc2cc(=O)c3cccc(C)c3[nH]2)cc1
→ x | 105.7 | x | x
COc1ccccc1C(=O)Nc1ccccc1SCc1cc(=O)c2ccccc2[nH]1
→ x | 52.7* | 53.1* | 30214
CC1=C(C(=O)Nc2cccc(C)n2)C(c2cccc(Oc3ccccc3)c2)C2=C(CC(C)(C)CC2=O)N1 (configuration not stated)
→ -14.2 | 101.9 | x | x
Cc1cc(N2CCC(C)CC2)n2nc(C(F)(F)F)c(-c3ccc(F)cc3)c2n1
→ -15.0 | 99.9 | x | x
CN(CCCC(=O)O)S(=O)(=O)c1ccc2c(c1)Cc1cc(S(=O)(=O)N(C)CCCC(=O)O)ccc1-2
→ x | 82.8* | 50.1* | 26370*
CCCCN(C)S(=O)(=O)c1ccc2c(c1)CC(C)N2C(C)=O (configuration not stated)
→ -16.6 | 99.6 | x | x
Cc1cc(C(=O)OCC(=O)Nc2ccccc2C(=O)NC(C)c2ccccc2)no1 (configuration not stated)
→ -3.1 | x | x | x
CS(=O)(=O)N(Cc1nnc(SCC(=O)N2CCOCC2)n1-c1ccccc1)c1ccc(F)cc1
→ -4.7 | 98.1 | x | x
N#C/C(=C/c1ccc(-c2cccc(C(F)(F)F)c2)o1)c1ccc(C(=O)O)cc1
→ -51.6 | 110.7 | x | x
O=C(O)C(=Cc1ccc(-c2cccc(C(F)(F)F)c2)o1)C(=O)O
→ -15.8 | 84.5* | 66.9 | 15696*

# Screens as filed in PubChem.
